Protein sequences, listed by entry. Tags and fused reporters are not part of them. Residues count along the entry.
UniProt P07814, 1007-1512 limits assumed: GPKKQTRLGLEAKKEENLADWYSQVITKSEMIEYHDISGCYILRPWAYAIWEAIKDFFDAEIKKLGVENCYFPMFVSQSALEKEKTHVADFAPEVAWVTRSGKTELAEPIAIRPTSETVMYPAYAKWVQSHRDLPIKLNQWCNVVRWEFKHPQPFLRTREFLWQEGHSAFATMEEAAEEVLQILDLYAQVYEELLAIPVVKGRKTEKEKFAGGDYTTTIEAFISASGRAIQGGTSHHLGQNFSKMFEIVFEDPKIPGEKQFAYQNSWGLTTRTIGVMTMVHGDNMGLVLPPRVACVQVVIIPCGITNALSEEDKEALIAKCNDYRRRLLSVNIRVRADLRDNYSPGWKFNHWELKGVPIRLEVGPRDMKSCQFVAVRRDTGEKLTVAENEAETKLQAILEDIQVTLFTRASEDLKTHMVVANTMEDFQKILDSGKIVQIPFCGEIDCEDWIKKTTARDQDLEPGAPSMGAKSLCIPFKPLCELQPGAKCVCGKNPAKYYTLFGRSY

In US20250228855A1:

Molecular target: HsProRS (Homo sapiens, UniProt P07814)
Assay: TR-FRET ligand displacement assay with tracer MAT379, HsProRS
Assay type: binding
[1] = read-out: HsProRS (KD [nM]) +proline, 100 μM Pro
[2] = read-out: HsProRS (KD [nM]) −, no proline, no ATP
[3] = read-out: HsProRS (KD [nM]) +proline, 100 μM Pro, tested form: HBr
[4] = read-out: HsProRS (KD [nM]) −, no proline, no ATP, tested form: HBr

| Structure (SMILES) | Kd [1] [nM] | Kd [2] [nM] | Kd [3] [nM] | Kd [4] [nM] |
| --- | --- | --- | --- | --- |
| CC(C)(C)OC(=O)N1CCC[C@H](OC(=O)NS(=O)(=O)NC2CCN(C(=O)Nc3nccnc3C(=O)NC3Cc4ccccc4C3)CC2)[C@H]1CC(=O)Cn1cnc2cc(Br)c(Cl)cc2c1=O (relative stereo) | 658 | 216 |  |  |
| CC(C)(C)OC(=O)N1CCC[C@H](OC(=O)NS(=O)(=O)NCC2CCN(C(=O)Nc3nccnc3C(=O)NC3Cc4ccccc4C3)CC2)[C@H]1CC(=O)Cn1cnc2cc(Br)c(Cl)cc2c1=O (relative stereo) | 609 | 720 |  |  |
| O=C(C[C@H]1NCCC[C@@H]1OC(=O)NS(=O)(=O)NC1CCN(C(=O)Nc2nccnc2C(=O)NC2Cc3ccccc3C2)CC1)Cn1cnc2cc(Br)c(Cl)cc2c1=O (relative stereo) |  |  | 6.63 | 0.367 |
| O=C(C[C@H]1NCCC[C@@H]1OC(=O)NS(=O)(=O)NCC1CCN(C(=O)Nc2nccnc2C(=O)NC2Cc3ccccc3C2)CC1)Cn1cnc2cc(Br)c(Cl)cc2c1=O (relative stereo) |  |  | 3.49 | 0.35 |

Like-named read-outs stand apart in the source and are kept apart here.
